Measurements reported in patent US20020155192A1, “Yeast transport isoforms” (priority 2000, published 2002).

Columns and labels:
Odc2p = molecular target: T1, Odc2p (Saccharomyces cerevisiae, UniProt Q99297); assay: Dependence on internal substrate of [14C]oxoglutarate uptake into proteoliposomes reconstituted with recombinant Odc2p; assay type: biochemical
T1 construct: made in house; host or cells: S. cerevisiae odc1Δodc2Δ (YPH499 background) carrying pYES2-based pODC2; purified from mitochondria on Ni-NTA agarose
T1 sequence (Q99297 1-307): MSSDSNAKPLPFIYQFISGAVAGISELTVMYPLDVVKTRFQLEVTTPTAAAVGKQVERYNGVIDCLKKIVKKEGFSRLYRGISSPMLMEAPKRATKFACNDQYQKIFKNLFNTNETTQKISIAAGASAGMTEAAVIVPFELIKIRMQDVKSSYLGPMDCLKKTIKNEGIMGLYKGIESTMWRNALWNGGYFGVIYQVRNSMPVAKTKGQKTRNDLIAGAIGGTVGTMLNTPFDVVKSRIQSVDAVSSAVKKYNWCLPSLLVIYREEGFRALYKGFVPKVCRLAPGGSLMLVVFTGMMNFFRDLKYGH
Method: Reconstitution of the ODC proteins into liposomes—Purified ODC proteins were reconstituted by cyclic removal of the detergent with a hydrophobic column (13). The composition of the initial mixture used for reconstitution was: 200 μl of purified isoform (0.3-0.4 μg of protein), 70 μl of 10% Triton X-114, 100 μl of 10% phospholipids in the form of sonicated liposomes, 20 mM oxoglutarate (except where otherwise indicated), 10 mM Pipes (pH 7.0), 0.7 mg of cardiolipin (Sigma) and water to a final volume of 700 μl. […]
External substrate was removed from proteoliposomes on a Sephadex G-75 column preequilibrated with buffer F (50 mM NaCl and 10 mM PIPES, pH 7.0). […] The external radioactivity was removed on Sephadex G-75 and the internal radioactivity was measured. […] The initial rate of transport was calculated in mmol/min per g protein from the time course of isotope equilibration (13). […] For efflux measurements, the internal substrate pool of the proteoliposomes was made radioactive by carrier-mediated exchange equilibration (13) with 0.1 mM [^14C]oxoglutarate added at high specific radioactivity. After 60 min, the residual external radioactivity was removed by passing the proteoliposomes again through a column of Sephadex G-75. […]

Odc1p = molecular target: T2, Odc1p (Saccharomyces cerevisiae, UniProt Q03028); assay: Kinetic constants (Km, Vmax, Ki) of recombinant purified Odc1p in proteoliposomes; assay type: biochemical
T2 construct: made in house; host or cells: S. cerevisiae odc1Δodc2Δ (YPH499 background) carrying pYES2-based pODC1; purified from mitochondria on Ni-NTA agarose
T2 sequence (Q03028 1-310): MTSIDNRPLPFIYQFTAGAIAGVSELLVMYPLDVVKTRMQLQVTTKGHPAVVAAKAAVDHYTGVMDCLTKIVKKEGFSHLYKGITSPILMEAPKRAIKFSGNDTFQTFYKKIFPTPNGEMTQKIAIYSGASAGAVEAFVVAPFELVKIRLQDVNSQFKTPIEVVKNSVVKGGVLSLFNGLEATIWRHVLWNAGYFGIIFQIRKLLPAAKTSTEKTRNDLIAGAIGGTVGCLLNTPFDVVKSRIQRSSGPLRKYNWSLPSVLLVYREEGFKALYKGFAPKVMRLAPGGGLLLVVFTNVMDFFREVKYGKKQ
Method: External substrate was removed from proteoliposomes on a Sephadex G-75 column preequilibrated with buffer F (50 mM NaCl and 10 mM PIPES, pH 7.0). Transport at 25° C. was started by adding [^14C]oxoglutarate (unless otherwise indicated) to the proteoliposomes, and terminated by addition of 30 mM pyridoxal 5′-phosphate and 10 mM bathophenanthroline (the “inhibitor-stop” method (13)). In controls, inhibitors were added with the labelled substrate. The external radioactivity was removed on Sephadex G-75 and the internal radioactivity was measured. […] The initial rate of transport was calculated in mmol/min per g protein from the time course of isotope equilibration (13). […] For efflux measurements, the internal substrate pool of the proteoliposomes was made radioactive by carrier-mediated exchange equilibration (13) with 0.1 mM [^14C]oxoglutarate added at high specific radioactivity. After 60 min, the residual external radioactivity was removed by passing the proteoliposomes again through a column of Sephadex G-75. […]
The kinetic constants of the recombinant purified Odc1p and Odc2p were determined by measuring the initial transport rate at various external [^14C]oxoglutarate concentrations, in the presence of a constant saturating internal concentration of 20 mM oxoglutarate.
The values were calculated from Lineweaver-Burk plots of the rate of [^14C]oxoglutarate versus substrate concentrations. […]

O=C(O)CCC(=O)C(=O)O [2-Oxoglutarate]
[14C]oxoglutarate transport (Odc2p): 27.8 mmol/min per g protein | [14C]oxoglutarate uptake with the internal substrate (in words) (Odc2p): taken up efficiently

O=C(O)CC(C(=O)O)C(O)C(=O)O [L-Isocitrate]
Ki (Odc1p): > 15 mM
